Earlier results in paper PMC8940841, “A metabolically stable PET tracer for imaging synaptic vesicle protein 2A: synthesis and preclinical characterization of [^18F]SDM-16” (European Journal of Nuclear Medicine and Molecular Imaging, 2021).

Sequences of proteins named here, by UniProt entry; tags and fusion partners are left off.
UniProt Q7L0J3, whole entry: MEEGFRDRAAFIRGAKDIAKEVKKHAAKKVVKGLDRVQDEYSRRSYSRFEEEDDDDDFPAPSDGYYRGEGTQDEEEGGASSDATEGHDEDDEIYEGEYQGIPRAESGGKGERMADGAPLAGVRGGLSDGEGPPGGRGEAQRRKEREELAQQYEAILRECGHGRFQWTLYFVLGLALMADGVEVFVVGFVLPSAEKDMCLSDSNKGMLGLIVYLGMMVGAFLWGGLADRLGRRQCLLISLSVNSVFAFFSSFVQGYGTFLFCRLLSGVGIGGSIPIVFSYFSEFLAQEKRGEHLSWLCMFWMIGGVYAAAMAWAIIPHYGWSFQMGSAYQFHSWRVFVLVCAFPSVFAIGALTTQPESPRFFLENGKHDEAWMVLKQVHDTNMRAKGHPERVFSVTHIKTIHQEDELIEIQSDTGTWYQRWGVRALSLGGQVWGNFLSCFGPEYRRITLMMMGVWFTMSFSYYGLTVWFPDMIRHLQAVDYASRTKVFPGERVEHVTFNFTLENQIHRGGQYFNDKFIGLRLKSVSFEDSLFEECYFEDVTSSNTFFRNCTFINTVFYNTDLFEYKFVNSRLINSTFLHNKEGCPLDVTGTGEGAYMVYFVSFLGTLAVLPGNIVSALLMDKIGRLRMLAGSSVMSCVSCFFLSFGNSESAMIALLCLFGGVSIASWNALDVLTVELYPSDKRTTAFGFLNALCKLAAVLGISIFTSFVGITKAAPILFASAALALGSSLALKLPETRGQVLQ

Target: human SV2A (Homo sapiens, UniProt Q7L0J3)
Settings: other SV2A ligands; cited from earlier work

Cc1cnccc1CN1C[C@@H](c2cccc(F)c2)CC1=O
Ki: 8.6 nM
